{"source": "paper PMC6658735", "about": "(Biomaterials, 2019)", "tested_on": "AM microtissues", "settings": "3 d treatment over a wide range of doses, cell viability at day 3", "data": [{"substance": "Penicillin", "values": [{"measurement": "toxicity on the AM development (dose-response, in words)", "value": "no detectable toxicity"}]}]}
